Assay results published in PMC11726654 (2024).
Marks after values point to notes of the source that are not given here.

By UniProt entry, the sequences of proteins in these tests, tags left out. Residues count along the entry.
UniProt P53671, 330-632 limits assumed: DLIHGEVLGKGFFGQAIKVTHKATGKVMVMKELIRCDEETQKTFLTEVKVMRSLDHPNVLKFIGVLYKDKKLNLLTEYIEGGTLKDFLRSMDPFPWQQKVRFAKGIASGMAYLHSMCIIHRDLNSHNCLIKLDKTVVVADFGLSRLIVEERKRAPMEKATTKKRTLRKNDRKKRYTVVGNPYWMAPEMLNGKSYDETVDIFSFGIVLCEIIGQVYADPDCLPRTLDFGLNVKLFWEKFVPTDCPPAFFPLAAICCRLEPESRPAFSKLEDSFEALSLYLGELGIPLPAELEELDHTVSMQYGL

Columns and labels:
LIMK2 [1] = target: T1, LIMK2 (Homo sapiens, UniProt P53671); experiment: RapidFire mass spectrometry kinase assay (cofilin phosphorylation); format: biochemical
[2] = target: PAK1-phosphorylated LIMK2 (Homo sapiens, UniProt P53671); experiment: RapidFire mass spectrometry kinase assay, PAK1-phosphorylated enzyme; format: biochemical
LIMK2 [3] = target: T1, LIMK2; experiment: Cellular NanoBRET target engagement in HEK293 cells; format: cell-based
LIMK2 [4] = target: T1, LIMK2; details: KdELECT, DiscoverX

In the case of `N#CCCN(Cc1ccncc1)C(=O)c1ccc(S(=O)(=O)Nc2ccccc2)cc1` [Compound 55, N-(2-Cyanoethyl)-4-(phenylsulfamoyl)-N-(4-pyridylmethyl)benzamide], the IC50 (LIMK2 [1]) is reported as 85.1 nM, the IC50 [2] is reported as 50.1 nM and the “nanoBRET pIC50 LIMK2” value (LIMK2 [3]) is reported as 5.86 ± 0.16 ^e. The “binding affinity (pKd) LIMK2” value (LIMK2 [4]) was 7.00 ^d.
